The assay concerns the target Purified human plasmin (human). The assay is described as follows: protease inhibition assay (residual amidolytic activity, tight-binding inhibitor fit); enzyme (plasmin 3 nM; FVIIa/sTF 20 nM; pKLK and FXIa 1 nM each) incubated with inhibitor (10^-1 to 2 x 10^3 nM; up to 3 µM in Figure 3B) for 1 h at room temperature in TBS pH 7.5 (50 mM Tris-HCl, 100 mM NaCl), 0.1 mg BSA/mL, 2 mM Ca2+; synthetic substrate added to 1 KM; Ki corrected for substrate.

“Aprotinin (bovine pancreatic trypsin inhibitor, BPTI) (from UniProt P00974 36-93) (natural protein)”: the inhibition constant Ki turned out to be 0.49 nM.

As usually defined, the Ki is the dissociation constant of the complex between target and ligand, obtained from inhibition or displacement.

The values above are taken from article PMC7698382.
